This is a sample that favours compounds with a hit; in the whole collection about 2.1% have one here.
PDI turbidity: blocks human protein disulfide isomerase activity; P07237; PDI insulin aggregation turbidity, A650, 90 min; inhibition, % at 10 µM; actives 0.052% (n = 350,000);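 active means mean inhibition across replicates of 30% or more, whatever share of single replicates reach that level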
Rev-erbA mod: modulates human Rev-erb alpha binding to DNA | P20393 | Rev-erbα–FITC-DNA binding, fluorescence polarization, 90 min | activity, % at 10 µM | actives 0.79% (n = 370,000);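 active means activity above about 14%, limit read from the data; passing the limit was not always enough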
UUG fidelity: modulators of yeast start codon fidelity, primary screen, whole organism, S. cerevisiae, single point, plate reader | AID 602363, 2012 | actives 0.13% (n = 350,000) | activity score, % at 18.7 µM | S. cerevisiae UUG-firefly luciferase reporter, luminescence/redox ratio;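 active means replicate mean at a twofold rise or more, about +100% in these data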;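 further: firefly luciferase made from a UUG start codon reports start codon fidelity; reporter light over untreated wells divided by growth signal over untreated wells; some hits fall short of that in this replicate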
ERp5 inh: ERp5 (human) disulfide isomerase inhibition | Q15084 | ERp5 insulin aggregation, absorbance 650 nm, 90 min | inhibition, % at 9.99 µM | actives 0.05% (n = 350,000);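 active means mean replicate inhibition above about 25%, with every replicate also reaching it, limit read from the data, passing the limit was not always enough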
SMARCA2 activ: SMARCA2 function activation, primary screen | MG213 cells, MMTV-luciferase reporter, dexamethasone, overnight | activation, % at 9.1 µM | actives 1% (n = 370,000); in the data active means activation above about 7.8%
INS-1E GSIS act: primary screen for activators of insulin secretion dependent on glucose, INS-1E cells, GLuc reporter luminescence; actives 0.61% (n = 370,000); INS-1E GLuc reporter insulin secretion, 2-3 h; activation, % at 16.6 µM;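 active means lowest replicate activation of at least 40%, so every replicate reaches that level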
NR1D1 mod conf: confirmation of modulators of human Rev-erb alpha DNA binding. shares compounds with Rev-erbA mod. Rev-erb alpha FITC-DNA binding, fluorescence polarization, 90 min. activation, % at 25 µM. actives 61% (n = 3,000). AID 1259319;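 active means activation at or above a set limit, or at least 3 SD above the negative control mean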
RORg counter: RORgamma DNA-binding activity, dose-response counter-screen. shares compounds with Rev-erbA mod. purified RORgamma protein-FITC-DNA binding, fluorescence polarization. IC50, µM. actives 8% (n = 910);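 active means Compounds whose fitted half-maximal concentration for disrupting protein-DNA binding is below 10 micromolar; the record names Rev-erb in its text, so the target is in doubt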
Of the large screens only hits and unclear results are named; the others gave an inactive call (follow-up assays come after a bar, where they were run).

O=C(CCn1nnc2ccccc21)Nc1nnc(COc2ccccc2F)s1	none (no result: ERp5 inh)
CCc1ccc(C(=O)COC(=O)c2ccc(-c3nnc(-c4ccccc4)o3)cc2)cc1	Rev-erbA mod 23.5 (no result: ERp5 inh, INS-1E GSIS act) | NR1D1 mod conf inactive
CCOC(=O)c1nnc(-c2ccccc2)o1	none (no result: ERp5 inh, INS-1E GSIS act)
Cc1sc2c(c1C)c(=O)n(-c1ccc(Cl)cc1)c(=O)n2Cc1cc(=O)n2ccccc2n1	Rev-erbA mod 37.4 (no result: ERp5 inh) | NR1D1 mod conf 26.8
COc1ccc(-c2ccc(=O)n(Cc3cc(=O)n4ccccc4n3)n2)cc1	none (no result: ERp5 inh, INS-1E GSIS act)
Cc1ccc(/C=C2\SC(=S)N(Cc3ccccc3)C2=O)o1	none (no result: ERp5 inh, INS-1E GSIS act)
O=C(O)c1cc(-c2ccc(/C=C3/SC(=S)N(Cc4ccccc4)C3=O)o2)ccc1Cl	Rev-erbA mod 21.5 | NR1D1 mod conf inactive
COc1cccc(S(=O)(=O)N[C@@H]2CC[C@H](CCn3cc(-c4ccc(F)cc4)nn3)O[C@H]2CO)c1	none (no result: PDI turbidity, Rev-erbA mod, SMARCA2 activ)
CCC(=O)Nc1ccc2c(c1)OC[C@H](C)N(C(=O)Cc1ccccn1)C[C@@H](C)[C@@H](OC)CN(C)C2=O	none (no result: PDI turbidity, Rev-erbA mod, SMARCA2 activ)
Cc1nnc(NC(=O)c2oc3c(ccc4ccccc43)c2C)s1	Rev-erbA mod 38.7 (no result: ERp5 inh, INS-1E GSIS act) | NR1D1 mod conf 28.5
CCc1nnc(NC(=O)c2oc3ccc(Br)cc3c2C)s1	Rev-erbA mod 41.5 (no result: UUG fidelity, INS-1E GSIS act) | NR1D1 mod conf 40.5 | RORg counter inactive
CCc1nonc1NC(=O)c1oc2cc(Br)ccc2c1C	Rev-erbA mod 16.8 | NR1D1 mod conf inactive
Cc1nnc(NC(=O)c2oc3ccccc3c2C)s1	none
CCc1nonc1NC(=O)c1oc2ccccc2c1C	none
COc1ccc(S(=O)(=O)Nc2ccc3c(c2)C(=O)N([C@@H](C)CO)C[C@H](C)[C@@H](CN(C)C(=O)Nc2ccc(F)cc2)OCCCC[C@@H](C)O3)cc1	none (no result: PDI turbidity, Rev-erbA mod, SMARCA2 activ)
COc1cccc(C(=O)Nc2ccc3c(c2)C(=O)N(C)[C@@H]2CC[C@H](CC(=O)NCc4ccc(F)cc4)O[C@@H]2CO3)c1	none (no result: PDI turbidity, Rev-erbA mod, ERp5 inh, SMARCA2 activ)
Cc1ccc(-c2oc3ncnc(N)c3c2-c2ccc(C)cc2)cc1	Rev-erbA mod 19.5 (no result: ERp5 inh) | NR1D1 mod conf inactive
Cc1cc(N(C)C(=O)c2ccc3c(c2)S(=O)(=O)c2cc(Cl)ccc2C3=O)c(C(F)(F)F)o1	Rev-erbA mod 19.5 | NR1D1 mod conf 19.9
CCN(CC)c1ccc2cc(S(=O)(=O)c3ccc(Cl)cc3)c(=O)oc2c1	Rev-erbA mod 17.4 | NR1D1 mod conf 18.5
C[C@@H]1CN([C@@H](C)CO)C(=O)Cc2cc(NC(=O)c3ccncc3)ccc2O[C@@H]1CN(C)C(=O)Nc1ccc2c(c1)OCO2	none (no result: PDI turbidity, Rev-erbA mod, SMARCA2 activ)
Cc1cnc(NC(=O)c2cc3c(C)nn(-c4ccccc4)c3s2)s1	Rev-erbA mod 40.4 | NR1D1 mod conf 35.2 | RORg counter inactive
Cc1cc2cc(CN(Cc3ccco3)C(=O)C3CCCCC3)c(=O)[nH]c2cc1C	Rev-erbA mod 43.1 (no result: ERp5 inh, INS-1E GSIS act) | NR1D1 mod conf 43.8
Cc1cc2cc(CN(Cc3ccco3)C(=O)NCc3ccccc3)c(=O)[nH]c2cc1C	none (no result: ERp5 inh, INS-1E GSIS act)
Cc1ccnc(NS(=O)(=O)c2ccc(NC(=O)c3cc(-c4ccc(Br)cc4)nc4ccccc34)cc2)n1	Rev-erbA mod 39.4 | NR1D1 mod conf 17.2
CCCCn1c(=O)[nH]c(=O)c2c1nc(-c1cc(Cl)c(OC)c(OC)c1)n2C	Rev-erbA mod 15.0 | NR1D1 mod conf inactive
CN(C)C=Nc1nc2c(Br)ccc(Br)c2cc1C(=O)NCC(C)(C)C	Rev-erbA mod 23.2 (no result: PDI turbidity, UUG fidelity, ERp5 inh, INS-1E GSIS act) | NR1D1 mod conf 40.0 | RORg counter inactive
Nc1nc2c(Br)ccc(Br)c2cc1C(=O)NCc1cccc2ccccc12	none (no result: PDI turbidity, UUG fidelity)
C[C@H](CO)N1C[C@H](C)[C@H](CN(C)S(=O)(=O)c2cccs2)OCCCC[C@H](C)Oc2ccc(NC(=O)C3CCCCC3)cc2C1=O	none (no result: PDI turbidity, Rev-erbA mod, SMARCA2 activ)
O=[N+]([O-])c1ccc(-c2nc3ccc([N+](=O)[O-])cc3[nH]2)cc1	none (no result: ERp5 inh, INS-1E GSIS act)
COc1ccc(-c2nc(-c3cccs3)c(-c3cccs3)[nH]2)cc1OC	Rev-erbA mod 44.1 (no result: ERp5 inh, INS-1E GSIS act) | NR1D1 mod conf 64.4 | RORg counter inactive
O=[N+]([O-])c1ccc(-c2nc(-c3cccs3)c(-c3cccs3)[nH]2)cc1	Rev-erbA mod 24.5 | NR1D1 mod conf 32.8 | RORg counter inactive
O=[N+]([O-])c1cccc(-c2nc(-c3cccs3)c(-c3cccs3)[nH]2)c1	Rev-erbA mod 28.5 (no result: ERp5 inh, INS-1E GSIS act) | NR1D1 mod conf 25.3
C[C@@H]1CCCCO[C@H](CN(C)CC2CCCCC2)[C@H](C)CN([C@H](C)CO)C(=O)c2cc(NS(=O)(=O)c3cn(C)cn3)ccc2O1	none (no result: PDI turbidity, Rev-erbA mod, SMARCA2 activ)
CN(C)c1ccc(C=C2SC(=S)NC2=O)cc1	Rev-erbA mod 47.7 (no result: UUG fidelity) | NR1D1 mod conf 35.1 | RORg counter inactive
COC(=O)C[C@H]1CC[C@@H]2[C@H](COC[C@H](O)CN2C(=O)Nc2ccccc2OC)O1	none (no result: PDI turbidity, Rev-erbA mod, UUG fidelity, SMARCA2 activ)
N#C/C(C(=O)Oc1ccccc1)=C1/Nc2ccccc2-c2ccccc21	Rev-erbA mod 44.3 (no result: ERp5 inh, INS-1E GSIS act) | NR1D1 mod conf 31.0
C[C@H](NC(=O)C[C@@H]1CC[C@H](NS(=O)(=O)c2cccc(F)c2)[C@H](CO)O1)c1ccccc1	none (no result: PDI turbidity, Rev-erbA mod, UUG fidelity, SMARCA2 activ)
CCOC(=O)C1=CCN(S(=O)(=O)c2cccc(Cl)c2)C1c1cccc(C)c1 (stereo not drawn)	Rev-erbA mod 17.8 (no result: PDI turbidity) | NR1D1 mod conf inactive
CC1=NN(c2ccc(C)cc2)C(=O)/C1=C\C=C\c1ccccc1	none (no result: UUG fidelity)
CC1=NN(c2ccccc2)C(=O)/C1=C/C=C/C=C/N(C)C	Rev-erbA mod 51.5 (no result: UUG fidelity) | NR1D1 mod conf 52.6
C[C@@H]1CCCCO[C@@H](CN(C)C(=O)Nc2ccccc2)[C@@H](C)CN([C@H](C)CO)C(=O)c2cc(NS(C)(=O)=O)ccc2O1	none (no result: PDI turbidity, Rev-erbA mod, SMARCA2 activ)
C[C@@H]1CN([C@@H](C)CO)C(=O)Cc2cc(NC(=O)C3CCCCC3)ccc2O[C@@H]1CN(C)C(=O)Nc1ccc2c(c1)OCO2	none (no result: PDI turbidity, Rev-erbA mod, SMARCA2 activ)
CS(=O)(=O)c1ccc2nc(NC(=O)c3cc(-c4ccccc4)nn3-c3ccccc3)sc2c1	Rev-erbA mod 42.4 | NR1D1 mod conf 18.8
CS(=O)(=O)c1ccc2nc(NC(=O)c3ccccc3Cl)sc2c1	none
COc1ccccc1C(=O)Nc1nc2ccccc2s1	Rev-erbA mod 33.5 | NR1D1 mod conf 40.5 | RORg counter inactive
COc1ccc(C(=O)Nc2nc3ccccc3s2)c(OC)c1	none
COc1ccccc1C(=O)Nc1nc2ccc(S(C)(=O)=O)cc2s1	Rev-erbA mod 49.0 (no result: ERp5 inh, INS-1E GSIS act) | NR1D1 mod conf 31.4
CCCNC(=O)N1C[C@H]2[C@@H](c3ccccc31)[C@H](CO)N2CC1CCCCC1	none (no result: PDI turbidity, Rev-erbA mod, SMARCA2 activ)
COc1ccc(Cl)cc1C(=O)Nc1ccc(Br)c(C)n1	Rev-erbA mod 28.1 | NR1D1 mod conf inactive
